Test results as given in patent publication US12729245B2, “Compositions and methods for inhibiting T cell exhaustion” (The Board of Trustees of the Leland Stanford Junior …, priority 2017, dated 2026).

Assay: In vivo provision of IL-2 with HA-28z CAR T cells
Conditions: 250,000 IU/mouse IP days 7, 9, 11, 13, 15; 1×10^6 CAR+ T cells IV day 7
Source text: 250,000 IU/mouse was given IP on days 7, 9, 11, 13, and 15 post tumor engraftment. 1×10^6 CAR+ T cells were given IV on day 7.

## IL-2: interleukin-2 given IP to mice, 250,000 IU/mouse
  reproduction of the enhanced function of JUN-CAR T cells: can not be reproduced
